Drawing on ChEMBL document CHEMBL1134077, “Synthesis of potent and selective dopamine D(4) antagonists as candidate radioligands” (Bioorg Med Chem Lett, 2001), this text covers Ki for one compound.

The chains behind the UniProt entries cited, without tags or fusion partners.
UniProt P08173, whole entry: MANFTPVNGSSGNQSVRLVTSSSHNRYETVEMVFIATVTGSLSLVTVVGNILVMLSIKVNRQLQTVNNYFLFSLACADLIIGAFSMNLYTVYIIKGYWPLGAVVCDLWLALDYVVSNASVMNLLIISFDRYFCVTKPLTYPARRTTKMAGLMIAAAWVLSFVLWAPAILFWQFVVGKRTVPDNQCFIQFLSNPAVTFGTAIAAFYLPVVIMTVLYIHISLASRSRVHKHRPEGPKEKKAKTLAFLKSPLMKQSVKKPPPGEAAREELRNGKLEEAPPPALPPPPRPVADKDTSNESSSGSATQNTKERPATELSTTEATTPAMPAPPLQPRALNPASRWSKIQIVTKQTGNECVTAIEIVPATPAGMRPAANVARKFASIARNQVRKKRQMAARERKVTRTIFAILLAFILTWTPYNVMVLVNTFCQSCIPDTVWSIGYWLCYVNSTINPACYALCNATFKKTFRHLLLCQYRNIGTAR

For this experiment, the target named is Muscarinic acetylcholine receptor M4 (Homo sapiens, UniProt P08173). Kind of experiment: Binding affinity to cloned Muscarinic acetylcholine receptor M4.

Structures are written as SMILES.

With `FC(F)(F)c1ccc(N2CCN(Cc3c[nH]c4ncccc34)CC2)cc1`, the Ki – broadly, a measure of affinity in units of concentration, obtained from inhibition or displacement – is more than 10 µM.
